Biological target: recombinant human DPPI (Homo sapiens (Human), UniProt P53634)
Assay: Inhibition of Human DPPI (Cathepsin C)
Assay type: biochemical
Conditions: substrate Gly-Arg-AMC, 30 min room temperature
From the text: Inhibition of Human DPPI (Cathepsin C)
Materials: Microtiterplates (Optiplate-384 F) were purchased from PerkinElmer (Prod. No. 6007270). The substrate Gly-Arg-AMC was from Biotrend (Prod.-No. 808756 Custom peptide). Bovine serum albumin (BSA; Prod. No. A3059) and Dithiothreitol (DTT; Prod. No D0632) were from Sigma. TagZyme buffer was from Riedel-de-Haen (Prod.-No. 04269), NaCl was from Merck (Prod.-No. 1.06404.1000) and morpholinoethane sulfonic acid (MES), was from Serva (Prod.-No. 29834). The DPP1 inhibitor Gly-Phe-DMK was purchased from MP Biomedicals (Prod.-No. 03DK00625). The recombinant human DPPI was purchased from Prozymex. All other materials were of highest grade commercially available.
The following buffers were used: MES buffer: 25 mM MES, 50 mM NaCl, 5 mM DTT, adjusted to pH 6.0, containing 0.1% BSA; TAGZyme Buffer: 20 mM NaH2PO4, 150 mM NaCl adjusted to pH 6.0 with HCl […]
Five uL test compound (final concentration 0.1 nM to 100 μM) in aqua bidest (containing 4% DMSO, final DMSO concentration 1%) were mixed with 10 μL of DPPI in MES buffer (final concentration 0.0125 ng/μL) and incubated for 10 min. […] The fluorescence in the wells was determined using a Molecular Devices SpectraMax M5 Fluorescence Reader (Ex 360 nm, Em 460 nm) or an Envision Fluorescence Reader (Ex 355 nm, Em 460 nm). […]

By UniProt entry, the sequences of proteins in these tests, tags left out. Residues count along the entry.
UniProt P53634, 395-463: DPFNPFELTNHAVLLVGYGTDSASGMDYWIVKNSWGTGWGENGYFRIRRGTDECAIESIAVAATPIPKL
UniProt P53634, 25-134: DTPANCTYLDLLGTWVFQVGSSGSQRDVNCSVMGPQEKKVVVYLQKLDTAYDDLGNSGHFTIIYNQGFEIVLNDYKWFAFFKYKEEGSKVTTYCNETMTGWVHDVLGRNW
UniProt P53634, 231-394: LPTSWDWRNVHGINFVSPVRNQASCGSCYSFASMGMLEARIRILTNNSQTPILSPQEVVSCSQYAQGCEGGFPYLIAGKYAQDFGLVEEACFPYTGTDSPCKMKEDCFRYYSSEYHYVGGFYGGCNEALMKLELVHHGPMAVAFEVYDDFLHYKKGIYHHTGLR

In the case of `CN1Cc2cc(-c3ccc(C[C@@H](C#N)NC(=O)[C@]45CC[C@@H](CN4)C5)cc3)ccc2C1=O` [Example 17], the IC50 is reported as 1.44 µM.

From patent publication US8889708B2 (Boehringer Ingelheim International GmbH, priority 2013, dated 2014)
